Consider 48 compounds from PubChem BioAssay AID651999 (Sanford-Burnham Center for Chemical Genomics, 2013).

Amino acid sequences for entries named in this document (tags omitted).
UniProt Q92905, whole entry: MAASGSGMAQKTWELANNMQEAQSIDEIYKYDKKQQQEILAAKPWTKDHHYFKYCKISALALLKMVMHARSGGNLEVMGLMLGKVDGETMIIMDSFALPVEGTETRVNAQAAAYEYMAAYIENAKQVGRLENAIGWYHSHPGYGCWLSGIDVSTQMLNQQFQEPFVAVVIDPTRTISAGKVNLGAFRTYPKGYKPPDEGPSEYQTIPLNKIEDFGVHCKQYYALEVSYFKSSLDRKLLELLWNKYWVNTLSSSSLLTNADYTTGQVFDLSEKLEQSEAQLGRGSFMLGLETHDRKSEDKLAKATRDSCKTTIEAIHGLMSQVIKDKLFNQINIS

Structures are written as SMILES. Only a part is listed here, and it is no random draw. The source made the active and inactive calls.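 Rule for the calls: active = pattern-corrected inhibition above about 35%, with an unprinted fluorescence ratio check between 0.5 and 1.5 (limit read from the data, passing the limit was not always enough); inactive = the rest.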

The target in the test is COP9 signalosome complex subunit 5 (Homo sapiens) (UniProt Q92905). Briefly: inhibitors of CSN-mediated cullin deneddylation, primary screen, biochemical, fluorescence polarization, uHTS (AID 651999).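 Note: 0% = enzyme with substrate and 100% = substrate without enzyme.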 To be noted: Purified CSN, SCF-Nedd8-OG deneddylation, at 12.5 µM, hits give high values. Summed up:
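Assay system: HEK293T-derived human Csn5 enzyme; quantity: 0.24 nM enzyme; medium: Tris/NaCl/DTT buffer, pH 7.5; also added: substrate SCFSkp2-Nedd8OG, 10 nM; doses: 12.5 µM compound; schedule: 90 min reaction at room temperature; signal: FP; read-out: % inhibition of substrate cleavage by Csn5; benchmarks: substrate-only high control, full reaction low control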
Background: Fluorescence polarisation rises when a labelled molecule tumbles more slowly, as on binding a larger partner.
A word on the inhibition: it is the drop in the measured response relative to a control, in per cent. For `CCOc1ccc(C)cc1CN(CCCl)CCCl`, the inhibition is inactive: 0.01%. As to `O=C(NCC1(N2CCCCC2)CCCCC1)c1ccco1`, the inhibition is inactive: -4.39%. As for `CN(C)c1ccc(C(=O)NCC2(N3CCCCC3)CCCCC2)cc1`, the figure is inactive: 3.52%. The result for `Cn1c(=O)[nH]cc(N(CCCl)CCCl)c1=O` reads inactive: 6.93%. The result for `Cc1ccccc1NC1(C#N)CCN(Cc2ccccc2)CC1` reads inactive: 0.01%; that for `CCN1CCC(Nc2cccc(F)c2)CC1`, inactive: 0.59%. Take `COc1ccc(C(c2nnnn2C2CCCCC2)N2CCC(n3c(=O)[nH]c4ccccc43)CC2)cc1` (stereo not drawn): the inhibition is inactive: -1.73%.

On to `CC(C)(C)n1nnnc1C(c1ccnc2ccccc12)N1CCC(n2c(=O)[nH]c3ccccc32)CC1` (stereo not drawn), for which the inhibition is inactive: -1.87%. As for `Cc1ccc(C(=O)NCC2(N3CCCCC3)CCCCC2)o1`, the figure is inactive: -1.59%; as for `Fc1ccccc1NC1CCN(Cc2ccccc2)CC1`, inactive: 2.25%.

For the compound `Cc1ccc(NC2(C#N)CCN(Cc3ccccc3)CC2)cc1`, the inhibition was inactive: -3.75%.

Take `COc1cccc(C(c2nnnn2C2CCCCC2)N2CCC(n3c(=O)[nH]c4ccccc43)CC2)c1OC` (stereo not drawn): the inhibition was inactive: -1.9%. As for `CC(=O)N(c1ccccc1)C1CCNCC1`, the figure is inactive: 0%; as for `CCC(c1nnnn1C1CCCCC1)N1CCC(n2c(=O)[nH]c3ccccc32)CC1` (stereo not drawn), inactive: 2.39%; as for `COc1cc(OC)cc(C(=O)NCC2(N3CCCCC3)CCCCC2)c1`, inactive: 2.05%. As for `O=c1[nH]c2ccccc2n1C1CCN(C(c2ccnc3ccccc23)c2nnnn2C2CCCCC2)CC1` (stereo not drawn), the figure is inactive: -5.76%; as for `CN1CCC(Nc2ccc(Cl)cc2)CC1`, inactive: -2.85%; as for `COc1cc(OC)cc(C(=O)NCC2(N3CCOCC3)CCCCC2)c1`, inactive: -0.94%. For `COc1cccc(C(c2nnnn2C2CCCC2)N2CCC(n3c(=O)[nH]c4ccccc43)CC2)c1OC` (stereo not drawn), the inhibition was inactive: 2.92%. As for `COc1cccc(C(=O)N(c2cc(C)cc(C)c2)C2CCN(C(=O)OC(C)(C)C)CC2)c1`, the figure is inactive: 3.96%; as for `CCC(CO)(C(=O)OC1CN2CCC1CC2)c1ccccc1` (stereo not drawn), inactive: -0.2%; as for `CC(C)(C)OC(=O)N1CCC(Nc2ccccc2)CC1`, inactive: 3.67%. `O=C(O)C1(Nc2ccccc2)CCN(Cc2ccccc2)CC1`: the inhibition was inactive: 0.39%. The result for `NN(c1ccccc1)C1CCN(CCc2ccccc2)CC1` reads inactive: 4.63%; that for `O=c1[nH]c2ccccc2n1C1CCN(C(c2cc3ccccc3o2)c2nnnn2C2CCCC2)CC1` (stereo not drawn), inactive: 1.97%. `CCCOc1ccc(C(=O)NCC2(N(C)C)CCCCC2)cc1`: the inhibition is inactive: -0.96%. The result for `CCOc1ncccc1C(=O)NCC1(N2CCOCC2)CCCCC1` reads inactive: -3.71%; that for `CN1CCC(Nc2ccc(F)c(Cl)c2)CC1`, inactive: -2.85%; that for `O=C(OC1CN2CCC1CC2)C1c2ccccc2C=Cc2ccccc21` (stereo not drawn), inactive: -3.79%.

For `O=c1[nH]c2ccccc2n1C1CCN(C(c2cccs2)c2nnnn2C2CCCC2)CC1` (stereo not drawn), the inhibition was inactive: 5.36%. `CCCCn1nnnc1C(c1cccc(OC)c1OC)N1CCC(n2c(=O)[nH]c3ccccc32)CC1` (stereo not drawn): the inhibition is inactive: -0.48%. The result for `CCOC(=O)N1CCC(Nc2ccc(C)cc2)CC1` reads inactive: 5.34%; that for `COc1cccc(C(c2nnnn2C(C)(C)C)N2CCC(n3c(=O)[nH]c4ccccc43)CC2)c1OC` (stereo not drawn), inactive: -3.55%; that for `N/C(=N\O)c1c(N)no[n+]1[O-]`, inactive: 3.34%. The result for `O=c1[nH]c2ccccc2n1C1CCN(C(c2cccs2)c2nnnn2C2CCCCC2)CC1` (stereo not drawn) reads inactive: 1.89%; that for `COc1ccc(C(=O)NCC2(N3CCOCC3)CCCCC2)cc1OC`, inactive: -0.43%. The result for `O=c1[nH]c2ccccc2n1C1CCN(C(c2ccnc3ccccc23)c2nnnn2C2CCCC2)CC1` (stereo not drawn) reads inactive: 4.84%. With `CCCCn1nnnc1C(c1ccccc1)N1CCC(n2c(=O)[nH]c3ccccc32)CC1` (stereo not drawn), the inhibition was inactive: -0.91%.

`COc1cc(C(=O)NCC2(N3CCOCC3)CCCCC2)cc(OC)c1C`: the inhibition was inactive: 0.7%.

As to `O=C(NCC1(N2CCOCC2)CCCCC1)c1cc(Br)ccc1Cl`, the inhibition was inactive: -3.85%. As to `CC(C)(C)n1nnnc1C(c1cccc2ccccc12)N1CCC(n2c(=O)[nH]c3ccccc32)CC1` (stereo not drawn), the inhibition was inactive: 3.01%. The result for `CN(C)C1(CNC(=O)c2cccc(C#N)c2)CCCCC1` reads inactive: 1.14%; that for `c1ccc(CN2CCC(Nc3ccccc3)CC2)cc1`, inactive: -2.52%. As for `Cc1cc(N(CCCl)CCCl)ccc1C=O`, the figure is inactive: 0.96%; as for `CCCN1CCC(Nc2cc(OC)cc(OC)c2)CC1`, inactive: -11.6%. For the compound `O=c1[nH]c2ccccc2n1C1CCN(C(c2ccccc2)c2nnnn2C2CCCC2)CC1` (stereo not drawn), the inhibition was inactive: 2.1%.

Take `N#Cc1ccc(C(=O)NCC2(N3CCCCC3)CCCCC2)cc1`: the inhibition is inactive: 2.07%.

Turning to `CC(C)(C)OC(=O)N1CCC(N(C(=O)c2ccccc2)c2ccc(Cl)cc2)CC1`, the inhibition is inactive: 2.81%.
